Measured values from ChEMBL document CHEMBL5053531, “Development of BromoTag: A "Bump-and-Hole"-PROTAC System to Induce Potent, Rapid, and Selective Degradation of Tagged Target Proteins” (J Med Chem, 2021).
Activity calls are given as the source filed them. No cut-off for these calls is given here.

Chains of the proteins cited; added tags and fusions are not shown.
UniProt P25440, whole entry, looked up: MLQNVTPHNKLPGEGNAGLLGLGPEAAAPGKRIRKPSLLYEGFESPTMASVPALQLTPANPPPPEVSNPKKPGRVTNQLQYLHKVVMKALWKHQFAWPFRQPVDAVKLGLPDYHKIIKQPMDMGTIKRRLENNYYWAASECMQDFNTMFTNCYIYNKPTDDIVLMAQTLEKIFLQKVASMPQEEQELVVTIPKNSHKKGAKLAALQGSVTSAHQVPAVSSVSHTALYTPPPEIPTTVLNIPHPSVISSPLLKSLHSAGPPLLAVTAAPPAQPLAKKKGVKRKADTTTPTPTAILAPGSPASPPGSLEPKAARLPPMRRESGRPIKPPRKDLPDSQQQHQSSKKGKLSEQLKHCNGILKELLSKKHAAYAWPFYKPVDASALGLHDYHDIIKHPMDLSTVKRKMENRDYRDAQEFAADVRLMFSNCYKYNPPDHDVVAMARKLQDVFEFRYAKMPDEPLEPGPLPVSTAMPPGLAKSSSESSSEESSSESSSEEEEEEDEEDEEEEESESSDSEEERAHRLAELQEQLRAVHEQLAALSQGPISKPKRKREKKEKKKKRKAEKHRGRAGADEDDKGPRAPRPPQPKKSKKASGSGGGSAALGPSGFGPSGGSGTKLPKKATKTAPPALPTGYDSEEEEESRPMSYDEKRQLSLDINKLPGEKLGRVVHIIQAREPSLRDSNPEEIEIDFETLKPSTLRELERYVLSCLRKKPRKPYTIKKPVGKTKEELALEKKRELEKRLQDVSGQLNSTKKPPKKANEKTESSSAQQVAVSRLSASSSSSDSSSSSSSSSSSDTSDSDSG
UniProt P40337, whole entry, looked up: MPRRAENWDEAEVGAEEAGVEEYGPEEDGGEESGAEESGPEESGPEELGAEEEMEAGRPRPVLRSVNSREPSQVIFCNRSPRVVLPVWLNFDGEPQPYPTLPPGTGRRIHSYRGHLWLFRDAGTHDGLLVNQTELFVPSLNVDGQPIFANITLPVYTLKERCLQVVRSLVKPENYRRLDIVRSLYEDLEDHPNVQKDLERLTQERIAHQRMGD

Tests used:
[1] = biological target: von Hippel-Lindau disease tumor suppressor/Bromodomain-containing protein 2 (Homo sapiens, UniProt P25440+P40337); experiment: Bump and hole PROTAC activity at BromoTag-Brd2/VHL-bound E3 ligase in HEK293 cells assessed as Brd2 degradation at 0.001 to 10 uM measured after 6 hrs by Western blot analysis; type: cell-based; conditions: dose 0.001-10 µM
[2] = tested on: von Hippel-Lindau disease tumor suppressor/Bromodomain-containing protein 4 (Homo sapiens), O60885+P40337 [L387A]; conditions: HEK293, dose 200.0 nM, time 3.0 hrs

SMILES | Brd2 degradation activity [1] | inhibition [2]
CC[C@@H](C(=O)OCCOCCCOCC(=O)N[C@H](C(=O)N1C[C@H](O)C[C@H]1C(=O)N[C@@H](C)c1ccc(-c2scnc2C)cc1)C(C)(C)C)[C@@H]1N=C(c2ccc(Cl)cc2)c2c(sc(C)c2C)-n2c(C)nnc21 | Active | –
CCC(C(=O)NCCOCCOCCOCC(=O)N[C@H](C(=O)N1C[C@H](O)C[C@H]1C(=O)NCc1ccc(-c2scnc2C)cc1)C(C)(C)C)C1N=C(c2ccc(Cl)cc2)c2c(sc(C)c2C)-n2c(C)nnc21 (mixture of isomers) | Active | –
CCC(C(=O)OCCOCCOCCOCC(=O)N[C@H](C(=O)N1C[C@H](O)C[C@H]1C(=O)NCc1ccc(-c2scnc2C)cc1)C(C)(C)C)C1N=C(c2ccc(Cl)cc2)c2c(sc(C)c2C)-n2c(C)nnc21 (mixture of isomers) | Active | –
CC[C@@H](C(=O)NCCOCCOCCOCC(=O)N[C@H](C(=O)N1C[C@H](O)C[C@H]1C(=O)NCc1ccc(-c2scnc2C)cc1)C(C)(C)C)[C@@H]1N=C(c2ccc(Cl)cc2)c2c(sc(C)c2C)-n2c(C)nnc21 | Active | –
CC[C@@H](C(=O)OCCOCCOCCOCC(=O)N[C@H](C(=O)N1C[C@H](O)C[C@H]1C(=O)NCc1ccc(-c2scnc2C)cc1)C(C)(C)C)[C@@H]1N=C(c2ccc(Cl)cc2)c2c(sc(C)c2C)-n2c(C)nnc21 | Active | Active
CCC(C(=O)OCCOCCCOCC(=O)N[C@H](C(=O)N1C[C@H](O)C[C@H]1C(=O)N[C@@H](C)c1ccc(-c2scnc2C)cc1)C(C)(C)C)C1N=C(c2ccc(Cl)cc2)c2c(sc(C)c2C)-n2c(C)nnc21 (mixture of isomers) | Active | –
